Experimental data: ChEMBL document CHEMBL4402550, “Potent, Efficacious, and Stable Cyclic Opioid Peptides with Long Lasting Antinociceptive Effect after Peripheral Administration” (2020)
Calls of active or inactive are those of the source. No cut-off for these calls is given here.

Amino acid sequences for entries named in this document (tags omitted). A change or cut given only in a name is not applied to a line headed by its entry.
UniProt P35372, whole entry, looked up: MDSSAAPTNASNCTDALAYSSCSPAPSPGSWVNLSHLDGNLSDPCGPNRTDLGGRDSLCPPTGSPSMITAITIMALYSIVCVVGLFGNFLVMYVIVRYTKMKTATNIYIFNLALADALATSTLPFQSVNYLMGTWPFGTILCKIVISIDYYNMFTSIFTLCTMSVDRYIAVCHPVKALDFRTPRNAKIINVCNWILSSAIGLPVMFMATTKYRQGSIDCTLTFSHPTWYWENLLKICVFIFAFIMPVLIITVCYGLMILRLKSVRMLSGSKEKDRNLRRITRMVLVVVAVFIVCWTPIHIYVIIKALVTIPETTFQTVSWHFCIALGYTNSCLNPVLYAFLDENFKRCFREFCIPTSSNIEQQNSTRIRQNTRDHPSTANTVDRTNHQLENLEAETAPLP
UniProt P41143, whole entry, looked up: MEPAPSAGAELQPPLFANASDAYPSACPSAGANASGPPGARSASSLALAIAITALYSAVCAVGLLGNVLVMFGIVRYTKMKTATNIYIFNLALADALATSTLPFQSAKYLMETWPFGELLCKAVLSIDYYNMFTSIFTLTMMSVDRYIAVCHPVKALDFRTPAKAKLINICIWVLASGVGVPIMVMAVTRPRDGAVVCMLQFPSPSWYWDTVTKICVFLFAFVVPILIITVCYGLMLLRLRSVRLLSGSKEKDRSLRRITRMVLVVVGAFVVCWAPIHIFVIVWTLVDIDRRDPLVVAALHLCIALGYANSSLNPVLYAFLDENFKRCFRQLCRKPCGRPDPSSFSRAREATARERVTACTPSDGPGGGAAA
UniProt P41145: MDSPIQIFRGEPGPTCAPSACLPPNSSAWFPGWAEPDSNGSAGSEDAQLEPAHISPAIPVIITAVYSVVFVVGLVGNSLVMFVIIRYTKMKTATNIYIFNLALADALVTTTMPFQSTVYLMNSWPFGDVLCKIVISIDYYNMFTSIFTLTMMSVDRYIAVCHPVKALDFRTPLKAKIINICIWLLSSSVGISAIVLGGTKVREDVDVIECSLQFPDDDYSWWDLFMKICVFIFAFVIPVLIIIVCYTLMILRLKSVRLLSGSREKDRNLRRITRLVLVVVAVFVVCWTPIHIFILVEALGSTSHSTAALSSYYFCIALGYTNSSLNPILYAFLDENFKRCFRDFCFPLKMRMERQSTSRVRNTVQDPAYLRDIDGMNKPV

Assays:
[1] = biological target: Mu-type opioid receptor (Homo sapiens) (UniProt P35372); assay: Agonist activity at human MOR expressed in CHO cell membranes incubated for 1 hr by [35S]-GTPgammaS coupling assay relative to DAMGO
[2] = biological target: Delta-type opioid receptor (Homo sapiens) (UniProt P41143); assay: Agonist activity at human DOR expressed in CHO cell membranes incubated for 1 hr by [35S]-GTPgammaS coupling assay relative to SNC80
[3] = biological target: Kappa-type opioid receptor (Homo sapiens) (UniProt P41145); assay: Agonist activity at human KOR expressed in CHO cell membranes incubated for 1 hr by [35S]-GTPgammaS coupling assay relative to U50,488
[4] = tested on: Mus musculus; assay: Antinociceptive activity in CD1 mouse assessed as reduction in nociception response during late phase at 0.15 umol,sc dosed 15 mins before test by formalin test
[5] = tested on: Mus musculus; assay: Antinociceptive activity in CD1 mouse assessed as reduction in nociception response during early phase at 0.15 umol,sc dosed 15 mins before test by formalin test
[6] = tested on: Mus musculus; assay: Antinociceptive activity in CD1 mouse assessed as reduction in thermal nociception at 1.5 umol/kg, iv dosed 15 mins before test and measured after 15 to 120 mins post compound dose by hot plate test
[7] = species on record: Homo sapiens; assay: Selectivity index, ratio of Ki for displacement of [3H]-diprenorphine from human DOR expressed in CHO cell membranes to KI for displacement of [3H]-diprenorphine from human MOR expressed in CHO cell membranes
[8] = species on record: Homo sapiens; assay: Selectivity index, ratio of Ki for displacement of [3H]-diprenorphine from human KOR expressed in CHO cell membranes to KI for displacement of [3H]-diprenorphine from human MOR expressed in CHO cell membranes
[9] = species on record: Homo sapiens; assay: Selectivity index, ratio of Ki for displacement of [3H]-diprenorphine from human KOR expressed in CHO cell membranes to KI for displacement of [3H]-diprenorphine from human DOR expressed in CHO cell membranes
[10] = biological target: Delta-type opioid receptor (Homo sapiens) (UniProt P41143); assay: Antagonist activity at human DOR expressed in CHO cell membranes assessed as reduction in SNC80-induced response incubated for 1 hr by [35S]-GTPgammaS coupling assay relative to naloxone
[11] = species on record: Homo sapiens; assay: Selectivity index, ratio of EC50 for human KOR expressed in CHO cell membranes to EC50 for human MOR expressed in CHO cell membranes
[12] = species on record: Homo sapiens; assay: Selectivity index, ratio of EC50 for human KOR expressed in CHO cell membranes to EC50 for human DOR expressed in CHO cell membranes
[13] = tested on: Mus musculus; assay: Antinociceptive activity in 5 nmol, icv opioid antagonist naloxone methiodide pre-treated CD1 mouse assessed as reduction in thermal nociception at 1.5 umol/kg, iv dosed 15 mins before test and measured after 15 to 120 mins post compound dose by hot plate test relative to control
[14] = species on record: Homo sapiens; assay: Selectivity index, ratio of EC50 for human DOR expressed in CHO cell membranes to EC50 for human MOR expressed in CHO cell membranes

| SMILES | Emax [1] [%] | Emax [2] [%] | Emax [3] [%] | Activity [4] | Activity [5] | Activity [6] | Ratio Ki [7] | Ratio Ki [8] | Ratio Ki [9] | Imax [10] [%] | Ratio EC50 [11] | Ratio EC50 [12] | Activity [13] | Ratio EC50 [14] |
| --- | --- | --- | --- | --- | --- | --- | --- | --- | --- | --- | --- | --- | --- | --- |
| Cc1cc(O)cc(C)c1C[C@H](N)C(=O)N[C@@H]1CSCc2ccccc2CSC[C@@H](NC(=O)[C@@H](N)Cc2c(C)cc(O)cc2C)C(=O)NCC(=O)N[C@@H](Cc2ccc(F)cc2)C(=O)NNC(=O)[C@H](Cc2ccc(F)cc2)NC(=O)CNC1=O | 104 | 27.7 | 76 | Active | Active | Active | 0.6 | 5.5 | 9.6 | – | – | – | – | – |
| N[C@@H](Cc1ccc(O)cc1)C(=O)N[C@@H]1CSSC[C@@H](NC(=O)[C@@H](N)Cc2ccc(O)cc2)C(=O)NCC(=O)N[C@@H](Cc2ccc(F)cc2)C(=O)N2CCN(CC2)C(=O)[C@H](Cc2ccc(F)cc2)NC(=O)CNC1=O | 83.6 | 11 | 69.3 | Active | Active | inactive | 0.4 | 1.6 | 4.4 | 90 | – | – | – | – |
| C[C@@H](NCC(=O)N[C@@H](Cc1ccc(F)cc1)C(=O)N1CCN(C(=O)[C@H](Cc2ccc(F)cc2)NC(=O)CNC(=O)[C@@H](C)NC(=O)[C@@H](N)Cc2ccc(O)cc2)CC1)C(=O)N[C@@H](Cc1ccc(O)cc1)C(N)=O | – | – | – | Active | Active | inactive | – | – | – | – | – | – | – | – |
| N[C@@H](Cc1ccc(O)cc1)C(=O)N[C@@H]1CSCc2ccccc2CSC[C@@H](NC(=O)[C@@H](N)Cc2ccc(O)cc2)C(=O)NCC(=O)N[C@@H](Cc2ccc(F)cc2)C(=O)N2CCN(CC2)C(=O)[C@H](Cc2ccc(F)cc2)NC(=O)CNC1=O | 90.5 | 21.3 | 75.6 | – | – | Active | 0.3 | 5.3 | 15 | – | 5 | 5 | Active | – |
| N[C@@H](Cc1ccc(O)cc1)C(=O)N[C@@H]1CSCc2ccccc2CSC[C@@H](NC(=O)[C@@H](N)Cc2ccc(O)cc2)C(=O)NCC(=O)N[C@@H](Cc2ccc(F)cc2)C(=O)NNC(=O)[C@H](Cc2ccc(F)cc2)NC(=O)CNC1=O | 88.6 | 14.3 | 68.6 | Active | Active | Active | 0.3 | 18 | 59 | 42 | 100 | – | – | 20 |
| N[C@@H](Cc1ccc(O)cc1)C(=O)N[C@@H]1CSCc2ccccc2CSC[C@@H](NC(=O)[C@@H](N)Cc2ccc(O)cc2)C(=O)NCC(=O)N[C@@H](Cc2ccccc2)C(=O)NNC(=O)[C@H](Cc2ccccc2)NC(=O)CNC1=O | – | – | – | Active | Active | Active | – | – | – | – | – | – | – | – |
| C[C@@H](NC(=O)[C@@H](N)Cc1ccc(O)cc1)C(=O)NCC(=O)N[C@@H](Cc1ccccc1)C(=O)NNC(=O)[C@H](Cc1ccccc1)NC(=O)CNC(=O)[C@@H](C)NC(=O)[C@@H](N)Cc1ccc(O)cc1 | – | – | – | inactive | inactive | inactive | – | – | – | – | – | – | – | – |
